The text below walks through data of paper PMC5317049, “Ex vivo^18O-labeling mass spectrometry identifies a peripheral amyloid β clearance pathway” (Molecular Neurodegeneration, 2017).

For assay [1], the system named is Aβ. The note with it: than solanezumab; cited from earlier work. The source says: The pathophysiological relevance of the observations needs to be determined in future studies.
Assay [2] deals with T1, Aβ1-40 (Homo sapiens, UniProt P05067).
T1 construct: To 1 ml PBS containing isotopic labeled Aβ1-40 (0.016 μM) 4 μg of each of the recombinant antibodies; purchased Anaspec, Inc
The assay is described as follows: Effect of antibodies on Aβ degradation in 5% serum. The note with it: 4 μg recombinant antibody in 1 ml PBS with 0.016 μM labeled Aβ1-40, 1 h pre-incubation, then 5% serum overnight, room temperature; IP-MALDI MS. Format: biochemical. As to the method: To 1 ml PBS containing isotopic labeled Aβ1-40 (0.016 μM) 4 μg of each of the recombinant antibodies solanezumab, bapineuzumab and crenezumab were added, followed by incubation for 1 h at room temperature. The antibodies were expressed and purified as previously described. Each sample was spiked with serum (5%, end concentration) followed by incubation overnight at room temperature. The samples were placed in a 100 °C heating block for five minutes to disrupt potential antibody/Aβ complexes, and subsequently centrifuged for 10 min at 4 °C (31.000 x g). The supernatants were transferred to new tubes and Aβ peptides were immunoprecipitated and analyzed by mass spectrometry as described above.

On to “bapineuzumab: recombinant anti-Aβ antibody bapineuzumab”, for which the “affinity for Aβ compared with solanezumab” value in assay [1] is on record as “much lower affinity”. The “effect on proteolytic degradation of Aβ1-40 in serum” value in assay [2] is reported as “did not block the degradation”.
